Test results taken from patent publication US11590129B2, “Combination therapy with an antitumor alkaloid” (PHARMA MAR, S.A., priority 2010, dated 2023).

Assays:
A2780 tumors = experiment: Human ovarian tumor xenografts (A2780) in athymic nude mice, tumor volume % T/C; type: in vivo; settings: doxorubicin 4.0 mg/kg iv days 0,7
Protocol: (§1) Female athymic nude mice (Harlan Laboratories Models, S.L. (Barcelona, Spain) were utilized for all experiments. Animals were housed in individually ventilated cages, up to ten per cage in a 12-hour light-dark cycle at 21-23° C. and 40-60% humidity. The mice were allowed free access to irradiated standard rodent diet and sterilized water. Animals were acclimated for at least 5 days prior to tumor implantation with a tumor cell suspension.
The formula to calculate volume for a prolate ellipsoid was used to estimate tumor volume (mm^3) from 2-dimensional tumor measurements: Tumor volume (mm^3)=[L×W^2]÷2, where L is the length and it is the longest diameter in mm, and W is the width and it is the shortest diameter in mm of a tumor. Assuming unit density, volume was converted to weight (i.e., 1 mm^3=1 mg). Tumor volume and animal body weights were measured 2-3 times per week starting form the first day of treatment (Day 0).
PM01183 was provided in the form of vials of lyophilized PM01183 cake which was reconstituted with water for infusion to a concentration of 0.2 mg/mL. The PM01183 stock solution was further diluted in 5% glucose solution for injection to the dosing formulation concentrations. […] Vinorelbine was provided as a solution prepared by diluting the product with 0.9% saline solution.
Dose level groups were administered either as single agents or in combination. […]

SW1990 tumors = experiment: Human pancreatic tumor xenografts (SW1990) in athymic nude mice, tumor volume % T/C; type: in vivo; settings: gemcitabine 90.0 mg/kg iv days 0,7,14
Protocol: as §1
Each animal was subcutaneously implanted on the right flank, using 26G needle and a 1 cc syringe, with 5×10^6 SW1990 cells, from in vitro passage 12, in 0.05 mL suspension of 50% Matrigel and 50% serum free medium, without antibiotics.
PM01183 was provided in the form of vials of lyophilized PM01183 cake which was reconstituted with water for infusion to a concentration of 0.2 mg/mL. The PM01183 stock solution was further diluted in 5% glucose solution for injection to the dosing formulation concentrations.
Dose level groups were administered either as single agents or in combination.
Comparison of the median tumor volume in the treatment groups (T) to the median tumor volume in the control group (T/C×100%) was used for evaluation of the antitumor efficacy.

Q: With `COc1cccc2c1C(=O)c1c(O)c3c(c(O)c1C2=O)C[C@@](O)(C(=O)CO)C[C@@H]3O[C@H]1C[C@H](N)[C@H](O)[C@H](C)O1` [Doxorubicin, doxorubicin] as the compound, how does the “% T/C on day 10” value (A2780 tumors) read?
A: The value was 68.9%.

Q: `Nc1ccn([C@@H]2O[C@H](CO)[C@@H](O)C2(F)F)c(=O)n1` [Gemcitabine, gemcitabine] was tested. Which “% T/C on day 17” value (SW1990 tumors) did it give?
A: The value was 47.4%.
